Values quoted from earlier work in patent US5919797A, “Halogenated naphthyl methoxy piperidines for mapping serotonin transporter sites” (Emory University, priority 1997, dated 1999).

How the values were obtained:
[1] = tested on: serotonin transporter; conditions: radiolabeled with carbon-11 and fluorine-18; cited from earlier work
[2] = tested on: presynaptic reuptake of serotonin; conditions: humans; depression, obsessive-compulsive and eating disorders, alcoholism, drug addiction; cited from earlier work

Compound	image quality / in vivo affinity and selectivity, in words [1]	therapeutic value, in words [2]
CNCCC(Oc1ccc(C(F)(F)F)cc1)c1ccccc1 (stereo not drawn) [fluoxetine]	poor quality images	considerable therapeutic value
Fc1ccc([C@@H]2CCNC[C@H]2COc2ccc3c(c2)OCO3)cc1 [paroxetine]	poor quality images	considerable therapeutic value
CN(C)CCCC1(c2ccc(F)cc2)OCc2cc(C#N)ccc21 (stereo not drawn) [citalopram]	poor quality images	considerable therapeutic value
